Results from paper PMC6359543, “Efficacy of Azatyrosine-Phenylbutyric Hydroxamides, a Histone Deacetylase Inhibitor, on Chemotherapy-Induced Gastrointestinal Mucositis” (International Journal of Molecular Sciences, 2019).

Tested on: male ICR mice
Experiment: Micronucleus test
Conditions: Cyclophosphamide 200 mg/kg

O=P1(N(CCCl)CCCl)NCCCO1 (centres unmarked) [Cyclophosphamide]
Number of Micronuclei (‰) (Day 2): 4.80±0.08 ‰ | Number of Micronuclei (‰) (Day 3): 4.40±0.19 ‰
